The chains behind the UniProt entries cited, without tags or fusion partners.
UniProt P08173, whole entry: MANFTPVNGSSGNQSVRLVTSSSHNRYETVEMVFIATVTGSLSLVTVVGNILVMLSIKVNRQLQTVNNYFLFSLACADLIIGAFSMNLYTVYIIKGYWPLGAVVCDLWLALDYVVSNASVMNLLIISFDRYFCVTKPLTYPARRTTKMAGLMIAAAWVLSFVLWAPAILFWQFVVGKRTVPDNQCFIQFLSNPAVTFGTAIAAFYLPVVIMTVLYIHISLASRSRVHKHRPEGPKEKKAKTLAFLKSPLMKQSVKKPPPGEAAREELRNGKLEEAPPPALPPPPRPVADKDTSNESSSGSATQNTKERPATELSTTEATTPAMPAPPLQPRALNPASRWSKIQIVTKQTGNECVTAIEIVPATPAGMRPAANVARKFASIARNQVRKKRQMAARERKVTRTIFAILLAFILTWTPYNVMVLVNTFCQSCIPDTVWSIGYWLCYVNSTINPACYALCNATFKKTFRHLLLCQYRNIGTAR

According to patent publication US11230556B2 (Merck Sharp & Dohme Corp., priority 2016, dated 2022):

Molecular target: human M4 muscarinic acetylcholine receptor (Homo sapiens, UniProt P08173)
Test: human FLIPR-based M4 PAM assay (CHO-K1 cells with human M4 receptor and Gαqi5, calcium dye fluorescence, acetylcholine at 20% of maximum response)
Conditions: read-out: M4 PAM IP, inflection point (IP) of 4 parameter logistic dose response curve, human M4 receptor + Gαqi5, FLIPR Tetra
Experimental: In a typical experiment the M4 muscarinic acetylcholine receptor modulating activity of the compounds of the present invention was determined in accordance with the following experimental method. CHO-K1 cells stably transfected with human M4 receptor and chimeric G-protein Gαqi5 (Coward P, et al., Analytical Biochemistry, 270:242-248 (1999)) are thawed from liquid N2 storage, resuspended in growth medium, plated in black, clear bottom 384 well plates, and incubated 16-20 hours at 37° C., 5% CO2. On the day of assay, growth medium is removed, the cells are washed 2 times with wash buffer, and cells are incubated in dye loading buffer at 37° C., 5% CO2 for ˜1 hour. Following dye loading the cell plates are placed in a FLIPR Tetra instrument and while monitoring dye fluorescence (excitation […]), 10 uL of test substance at increasing concentrations is added, and fluorescence values are recorded for 4 min. Next, 10 uL of acetylcholine is added (final concentration calculated so as to achieve 20% of the maximum acetycholine response), and the fluorescence reading is continued for 3.5 min. In some cases, a third addition of acetylcholine (final concentration calculated to achieve 70% of the maximal acetylcholine response) is performed. […]

EC50: 287 nM
Compound: COc1ccc(OC2CCN(c3nc4cnc(C(F)(F)F)n4cc3C)CC2)cn1
